The nature of data set [1]: Inhibitory activity against Serine/Threonine Protein phosphatase 2C (PP2C).
Data set [2] can be described thus: Inhibitory activity against Serine/Threonine Protein Phosphatase (PP2C).
A short description of data set [3]: dissociation constant was determined.

Take `O=C(O)c1cccc2ccc(CP(O)(O)=S)cc12`: the Ki (in general, the equilibrium dissociation constant of an inhibitor or competing ligand from its target) in data set [1] was 15 µM. In turn, `O=C(O)c1cccc2ccc(CP(=O)(O)O)cc12` registered a Ki in data set [2] of 48 µM.

In the case of `O=P(O)(O)Oc1ccccc1`, the pKa (usually the negative logarithm of the acid dissociation constant) in data set [3] amounted to 6.2.

Values taken from ChEMBL document CHEMBL1144877, “A comparison of phosphonothioic acids with phosphonic acids as phosphatase inhibitors” (2003).
